Results taken from ChEMBL document CHEMBL5029173, “Differential BET Bromodomain Inhibition by Dihydropteridinone and Pyrimidodiazepinone Kinase Inhibitors” (J Med Chem, 2021).

Target: Bromodomain-containing protein 4 (Homo sapiens, UniProt O60885)

CC[C@@H]1C(=O)N(C)c2cnc(Nc3ccc(C(=O)N[C@H]4CC[C@H](N5CCN(CC6CC6)CC5)CC4)cc3OC)nc2N1C(C)C [VOLASERTIB]
ΔTm: 8.6 °C
